Target: T1, aldose reductase (Bos taurus, UniProt P16116)
T1 construct: the preparation of the enzyme from bovine lens; from tissue; host or cells: bovine lens
Assay: in vitro aldose reductase inhibition (modified Hayman and Kinoshita procedure)
Type: biochemical, bovine
Excerpt: In the present case the procedure of Hayman and Kinoshita is modified in that the final chromatography step is omitted in the preparation of the enzyme from bovine lens.

inhibition at 10 µM (read-out: % Inhibition at Different Molar Concentration (in vitro), 10^-5): 98%
inhibition at 1 µM (read-out: % Inhibition at Different Molar Concentration (in vitro), 10^-6): 94%
inhibition at 0.1 µM (read-out: % Inhibition at Different Molar Concentration (in vitro), 10^-7): 65%
SMILES: COc1ccc2c(C(=S)N(C)CC(=O)O)cccc2c1C(F)(F)F [Example 52, N-[[5-(trifluoromethyl)-6-methoxy-1-naphthalenyl]thioxomethyl]-N-methylglycine]
